Measurements: ChEMBL document CHEMBL1132530, “Picking the S1, S1' and S2' pockets of matrix metalloproteinases. A niche for potent acyclic sulfonamide inhibitors” (Bioorg Med Chem Lett, 1999)

Molecular target: Collagenase 3 (Homo sapiens, UniProt P45452)
Assay: Inhibition of matrix metalloprotease-13

## COc1ccc(S(=O)(=O)N(CC(C)C)[C@@H](CCSCc2ccc(OCc3ccccc3)cc2)C(=O)NO)cc1
  IC50: 20 nM
